Reference: patent US20240189458A1, “METHODS FOR IN VIVO DELIVERY OF MICROBES TO HUMAN MICROENVIRONMENTS” (priority 2021, published 2024)

The chains behind the UniProt entries cited, without tags or fusion partners. Where a name states a change or a piece, a line headed by the entry shows the natural chain unless it says otherwise.
UniProt P0DM80: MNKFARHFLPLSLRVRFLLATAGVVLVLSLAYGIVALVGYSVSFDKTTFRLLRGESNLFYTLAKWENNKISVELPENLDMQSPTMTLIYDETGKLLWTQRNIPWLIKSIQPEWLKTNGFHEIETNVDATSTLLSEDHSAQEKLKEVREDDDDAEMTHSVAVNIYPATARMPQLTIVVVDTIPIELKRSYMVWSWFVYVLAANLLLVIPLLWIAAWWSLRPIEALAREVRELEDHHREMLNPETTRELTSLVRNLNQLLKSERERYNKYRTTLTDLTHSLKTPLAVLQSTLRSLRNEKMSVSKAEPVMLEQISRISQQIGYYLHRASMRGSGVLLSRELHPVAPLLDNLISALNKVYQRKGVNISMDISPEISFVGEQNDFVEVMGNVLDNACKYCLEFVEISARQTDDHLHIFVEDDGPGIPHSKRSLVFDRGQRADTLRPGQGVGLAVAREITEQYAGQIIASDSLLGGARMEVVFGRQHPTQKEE

Assays:
S. Typhimurium PhoPQ [1] = target: T1, S. Typhimurium PhoPQ (Salmonella typhimurium, UniProt P0DM80); test: PvirK-mNG reporter of PhoPQ activity in engineered E. coli KB1, flow cytometry; format: cell-based; details: LL-37 added, read-out: half-maximal activation of PvirK-mNG reporter
T1 construct: expressed in transfected cells; host or cells: E. coli BW30007 (lacks E. coli phoPQ) with the cassette integrated in the genome = strain KB1
From the text: Porting S. Typhimurium PhoPQ into E. coli: To enable high-throughput screening of AMP-PhoQ interactions, an E. coli reporter strain of S. Typhimurium PhoPQ activity was engineered (24). First, a genomic integration cassette was constructed wherein S. Typhimurium phoP and phoQ are expressed from constitutive promoters and other well-characterized gene regulatory elements (24). The resulting engineered PhoPQ expression cassette was integrated into the genome of E. coli BW30007, which lacks the E. coli phoPQ ortholog, resulting in strain KB1. Next, a plasmid-based transcriptional reporter of PhoPQ activity was developed. When overexpressed, PhoP can activate target promoters independently of PhoQ. […] These plasmids were transformed into BW30007 and measured sfGFP fluorescence in response to varying levels of aTc. […]
Next, a plasmid was constructed wherein PvirK controls expression of an mNeonGreen (mNG) fluorescent reporter gene, which produces a fluorescent protein that is brighter than sfGFP. […] LL-37 response was also measured in two negative control strains: an S. Typhimurium strain lacking phoQ and a KB1 derivative in which the catalytic histidine of PhoQ was mutated to an alanine (KB1 PhoQ H277A).

S. Typhimurium PhoPQ [2] = target: T1, S. Typhimurium PhoPQ; test: PvirK-mNG reporter of PhoPQ activity in S. Typhimurium, flow cytometry; format: cell-based; details: LL-37 added, read-out: half-maximal activation of PvirK-mNG reporter
Experimental: Next, a plasmid was constructed wherein PvirK controls expression of an mNeonGreen (mNG) fluorescent reporter gene, which produces a fluorescent protein that is brighter than sfGFP. This plasmid was transformed into both S. Typhimurium and KB1 to measure PhoPQ activation by the positive control AMP LL-37. It observed that this PvirK-mNG reporter system is activated in a similar manner in both organisms (24), with half-maximal activation occurring at 2.01±0.43 and 1.16±0.10 μM LL-37, respectively. LL-37 response was also measured in two negative control strains: an S. Typhimurium strain lacking phoQ and a KB1 derivative in which the catalytic histidine of PhoQ was mutated to an alanine (KB1 PhoQ H277A).

## LL-37
S. Typhimurium PhoPQ [1]
  EC50: 1160 ± 100 nM
S. Typhimurium PhoPQ [2]
  EC50: 2010 ± 430 nM
